This is a selection; strong and weak results do not stand in their true shares. Records with an inconclusive call do not appear. Active and inactive are the calls of the source. The call rests on the fitted dose curve; in most records, active means well fitted inhibition curve with a large enough effect; inconclusive means small, poorly fitted or top-dose-only effect; inactive means no such curve, though single readings can be large or run the other way.
Potency means the concentration at half of the fitted maximal effect.

Chains of the proteins cited; added tags and fusions are not shown. Lines headed by an entry give the natural chain unless they say otherwise; changes in a name come on top.
UniProt Q9HC16: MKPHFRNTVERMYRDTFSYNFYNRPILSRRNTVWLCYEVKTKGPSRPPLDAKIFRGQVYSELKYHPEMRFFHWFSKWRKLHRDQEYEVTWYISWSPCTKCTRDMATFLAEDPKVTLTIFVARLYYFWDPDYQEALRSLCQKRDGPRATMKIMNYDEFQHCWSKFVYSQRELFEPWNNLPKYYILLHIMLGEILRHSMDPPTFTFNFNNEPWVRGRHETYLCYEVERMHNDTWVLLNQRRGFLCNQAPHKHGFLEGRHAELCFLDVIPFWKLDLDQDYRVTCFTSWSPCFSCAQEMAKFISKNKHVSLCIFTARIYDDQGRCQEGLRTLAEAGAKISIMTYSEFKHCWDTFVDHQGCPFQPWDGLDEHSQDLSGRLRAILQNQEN

For this test, the target named is DNA dC->dU-editing enzyme APOBEC-3G (Homo sapiens) (UniProt Q9HC16). As to the kind of experiment: qHTS for inhibitors of Vif-A3G interactions: Cherry picks counterscreen.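 Further: hits raise yellow fluorescence by blocking Vif-driven A3G-eYFP degradation; nearly all actives have a fitted effect of over 70% in size.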 Particulars: HeLa A3G-eYFP + Vif (tagged APOBEC3G with the HIV-1 protein that degrades it), eYFP fluorescence, 24 h. An excerpt:
The recent discovery and characterization of host restriction factors, which provide a potent defense to invading retroviruses, has provided new targets for antiviral drug development. APOBEC3G (A3G) and APOBEC3F (A3F) are potent cytidine deaminases that block HIV-1 replication; HIV-1 expresses the Vif protein, which counteracts A3G and A3F by binding to them and inducing their proteasomal degradation. The Vif-A3G and Vif-A3F interactions provide two potential targets for development of small molecules which can interfere with the ability of Vif to degrade A3G or A3F. […] To identify inhibitors that can interfere with Vif mediated degradation of A3G and A3F, we have developed Hela cell lines that stably express A3G or A3F tagged with eYFP at the C-terminal end (A3G-eYFP or A3F-eYFP, respectively) and Vif. In the absence of an inhibitor, Vif induces degradation of A3G-eYFP and A3F-eYFP, and the cells are not fluorescent. In the presence of an inhibitor, it is expected that Vif will be unable to degrade A3G-eYFP and/or A3F-eYFP, resulting in an increase in yellow fluorescence. […]
A3G-Vif cells were harvested from T225 flask and resuspended in phenol free OPTI-MEM medium with 5% FBS. […] After that, the plates were measured on Acumen Explorer (TTP Lab Tech). The fluorescence was detected by 488 nm/Ex and […].
`CC[n+]1c(/C=C/N(C)c2ccccc2)oc2ccccc21`: the Potency is active: 6.51 µM.
